Ka and binding capacity compared to rAAV-6 (times less than rAAV-6) data for one substance are collected here from patent publication US20130189225A1 (ASSOCIATION INSTITUT DE MYOLOGIE, published 2013).

Chains of the proteins cited; added tags and fusions are not shown. Residues count along the entry.
UniProt Q08380, 19-585 limits assumed: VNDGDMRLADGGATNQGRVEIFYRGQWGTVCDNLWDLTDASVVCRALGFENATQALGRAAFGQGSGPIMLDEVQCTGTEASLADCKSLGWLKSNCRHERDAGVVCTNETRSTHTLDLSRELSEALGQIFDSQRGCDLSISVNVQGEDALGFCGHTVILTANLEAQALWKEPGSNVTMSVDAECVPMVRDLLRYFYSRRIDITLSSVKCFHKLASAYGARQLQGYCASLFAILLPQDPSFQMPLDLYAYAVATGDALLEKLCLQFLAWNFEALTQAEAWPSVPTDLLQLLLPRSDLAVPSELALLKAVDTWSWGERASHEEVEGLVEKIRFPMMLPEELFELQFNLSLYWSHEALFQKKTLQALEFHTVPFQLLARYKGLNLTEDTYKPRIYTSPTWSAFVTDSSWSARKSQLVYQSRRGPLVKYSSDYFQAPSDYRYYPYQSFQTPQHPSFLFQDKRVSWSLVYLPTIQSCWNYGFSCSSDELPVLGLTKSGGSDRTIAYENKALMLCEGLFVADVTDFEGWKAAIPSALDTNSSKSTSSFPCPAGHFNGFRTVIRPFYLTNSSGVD

This test deals with human galectin 3 binding protein (G3BP), native protein of human serum (human) (UniProt Q08380). Kind of test: surface plasmon resonance imagery, rAAV immobilised on glass prism, hu-G3BP injected. Background: Surface plasmon resonance follows binding to a sensor surface in real time, without labels.

As to “rAAV-8 (recombinant adeno-associated virus vector with AAV-8 capsid)”, the Ka is 1e+09 M⁻¹ and the binding capacity compared to rAAV-6 (times less than rAAV-6) is 2.
